From article PMC10341573, “Design, Synthesis, and Biological Evaluation of Novel Quinazolin-4(3H)-One-Based Histone Deacetylase 6 (HDAC6) Inhibitors for Anticancer Activity” (International Journal of Molecular Sciences, 2023)

Sequences of proteins named here, by UniProt entry; tags and fusion partners are left off. Residues count along the entry.
UniProt P56524, 648-1057: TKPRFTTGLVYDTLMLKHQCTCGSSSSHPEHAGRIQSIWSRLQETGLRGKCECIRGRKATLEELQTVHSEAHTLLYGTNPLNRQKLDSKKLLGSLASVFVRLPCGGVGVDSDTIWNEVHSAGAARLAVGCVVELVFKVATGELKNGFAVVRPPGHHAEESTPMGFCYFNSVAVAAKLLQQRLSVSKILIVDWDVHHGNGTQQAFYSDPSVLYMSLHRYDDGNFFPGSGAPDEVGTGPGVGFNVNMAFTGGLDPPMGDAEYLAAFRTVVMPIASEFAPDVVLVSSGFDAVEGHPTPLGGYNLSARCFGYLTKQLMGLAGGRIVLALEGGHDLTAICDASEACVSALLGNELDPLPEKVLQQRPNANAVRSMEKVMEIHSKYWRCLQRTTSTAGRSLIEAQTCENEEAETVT

Molecular target: T1, HDAC4 (Homo sapiens, UniProt P56524)
T1 construct: catalytic domain of HDAC4 (T648-T1057, full length: UniProt P56524); made in house; host or cells: E. coli BL21(DE3), pET14b vector
Assay: HDAC enzyme activity assay (fluorogenic, Boc-Lys(trifluoroacetyl)-AMC), HDAC4
Format: biochemical

- IC50: 4.7 ± 1.5 µM
Structure (SMILES): CN1CCc2c(c3ccccc3n2Cc2ccc(C(=O)NO)cc2)C1 [Tubastatin, reference compound]
